Values quoted from earlier work in US20250049819A1, “METHODS FOR TREATING AND PREVENTING C. DIFFICILE INFECTION” (Paratek Pharmaceuticals, Inc., priority 2016, published 2025).

Test system: C. difficile and gut microbiota
Conditions: published gut model studies; cited from earlier work

## amoxicillin clavulanate
  induction of simulated CDI (C. difficile germination and toxin production) in the gut model: have induced CDI in this model
